Test results from ChEMBL document CHEMBL1201862, “PubChem BioAssay data set” (2004).
Active and inactive are the calls of the source. Unless noted, the rule behind the calls is not given here.

Protein sequences, listed by entry. Tags and fused reporters are not part of them. Lines headed by an entry give the natural chain unless they say otherwise; changes in a name come on top.
UniProt P98170, whole entry: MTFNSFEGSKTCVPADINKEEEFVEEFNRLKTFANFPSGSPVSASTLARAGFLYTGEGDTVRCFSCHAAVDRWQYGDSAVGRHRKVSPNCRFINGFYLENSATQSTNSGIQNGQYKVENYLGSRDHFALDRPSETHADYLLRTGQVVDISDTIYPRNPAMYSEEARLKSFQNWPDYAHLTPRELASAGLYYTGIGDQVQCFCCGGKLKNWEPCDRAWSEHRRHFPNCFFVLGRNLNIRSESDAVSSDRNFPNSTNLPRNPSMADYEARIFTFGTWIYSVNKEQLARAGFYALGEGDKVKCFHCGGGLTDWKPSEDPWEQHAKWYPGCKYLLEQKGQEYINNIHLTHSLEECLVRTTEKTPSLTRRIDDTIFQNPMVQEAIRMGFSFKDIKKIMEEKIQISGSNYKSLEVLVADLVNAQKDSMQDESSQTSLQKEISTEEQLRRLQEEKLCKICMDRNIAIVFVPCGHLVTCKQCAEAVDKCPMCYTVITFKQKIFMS
UniProt P49840: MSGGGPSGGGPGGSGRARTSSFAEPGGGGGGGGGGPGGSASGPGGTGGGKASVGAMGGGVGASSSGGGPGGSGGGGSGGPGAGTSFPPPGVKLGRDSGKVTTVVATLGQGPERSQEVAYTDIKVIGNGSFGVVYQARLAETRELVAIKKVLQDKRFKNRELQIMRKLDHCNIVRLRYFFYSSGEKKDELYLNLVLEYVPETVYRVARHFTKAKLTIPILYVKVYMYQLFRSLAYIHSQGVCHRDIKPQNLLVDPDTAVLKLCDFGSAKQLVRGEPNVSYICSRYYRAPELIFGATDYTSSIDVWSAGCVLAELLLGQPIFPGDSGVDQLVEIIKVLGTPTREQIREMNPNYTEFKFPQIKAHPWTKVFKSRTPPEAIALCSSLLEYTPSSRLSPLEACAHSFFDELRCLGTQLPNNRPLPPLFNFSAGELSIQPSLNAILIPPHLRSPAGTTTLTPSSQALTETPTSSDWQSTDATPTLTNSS

Experiments:
[1] = target: T1, E3 ubiquitin-protein ligase XIAP (Homo sapiens, UniProt P98170); assay: SAR analysis of Antagonists of XIAP-Bir3 domain of IAP-family anti-apoptotic proteins. [Related pubchem assays (depositor defined):AID1018, AID1449, AID1513, AID1514, AID1638]
[2] = target: T1, E3 ubiquitin-protein ligase XIAP; assay: SAR analysis of Antagonists of IAP-family anti-apoptotic proteins. [Related pubchem assays (depositor defined):AID1018, AID1449, AID1513, AID1514, AID1638]
[3] = target: Glycogen synthase kinase-3 alpha (Homo sapiens, UniProt P49840); assay type: functional;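 also: GSK3A result taken from a broad kinome-wide kinase panel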
[4] = target: T2, Mannose-6-phosphate isomerase (Homo sapiens, UniProt P34949); assay: MPI inhibition at elevated mannose 6-phosphate – biochemical, fluorescence intensity, high mannose 6-phosphate, primary screen (AID 1220)
T2 sequence (P34949 whole entry): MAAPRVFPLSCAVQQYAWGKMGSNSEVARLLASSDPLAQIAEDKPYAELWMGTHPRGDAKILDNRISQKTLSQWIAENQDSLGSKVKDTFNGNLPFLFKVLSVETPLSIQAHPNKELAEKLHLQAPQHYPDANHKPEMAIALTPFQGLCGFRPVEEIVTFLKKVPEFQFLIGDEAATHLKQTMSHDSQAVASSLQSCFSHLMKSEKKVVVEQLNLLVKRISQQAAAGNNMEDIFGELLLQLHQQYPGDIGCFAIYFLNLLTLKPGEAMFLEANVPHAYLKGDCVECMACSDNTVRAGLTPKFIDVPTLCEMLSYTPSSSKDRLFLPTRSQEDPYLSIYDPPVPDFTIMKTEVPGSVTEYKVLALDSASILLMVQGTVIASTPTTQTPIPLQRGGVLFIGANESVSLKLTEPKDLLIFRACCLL

## CC(C)[C@H](NC(=O)[C@H](C)N)C(=O)N1CCC[C@@H]1C(=O)NC(c1ccccc1)c1ccccc1
[1]
  IC50: inactive: > 100 µM
[2]
  IC50: inactive: > 100 µM

## CN1CCC(c2c(O)cc(O)c3c(=O)cc(-c4ccccc4Cl)oc23)C(O)C1 (centres undefined)
[3]
  Ki: active: 0.794 µM

## O=c1c2ccccc2[se]n1-c1ccccc1 [EBSELEN]
[4]
  IC50: < 0.391 µM (not active)
